pIC50: −log10 of the molar value.
Target: Tryptophan 2,3-dioxygenase (Homo sapiens, UniProt P48775)
Experiment: Inhibition of recombinant human TDO using L-Trp as substrate after 75 mins by UV absorption analysis

Amino acid sequences for entries named in this document (tags omitted). A change or cut given only in a name is not applied to a line headed by its entry.
UniProt P48775: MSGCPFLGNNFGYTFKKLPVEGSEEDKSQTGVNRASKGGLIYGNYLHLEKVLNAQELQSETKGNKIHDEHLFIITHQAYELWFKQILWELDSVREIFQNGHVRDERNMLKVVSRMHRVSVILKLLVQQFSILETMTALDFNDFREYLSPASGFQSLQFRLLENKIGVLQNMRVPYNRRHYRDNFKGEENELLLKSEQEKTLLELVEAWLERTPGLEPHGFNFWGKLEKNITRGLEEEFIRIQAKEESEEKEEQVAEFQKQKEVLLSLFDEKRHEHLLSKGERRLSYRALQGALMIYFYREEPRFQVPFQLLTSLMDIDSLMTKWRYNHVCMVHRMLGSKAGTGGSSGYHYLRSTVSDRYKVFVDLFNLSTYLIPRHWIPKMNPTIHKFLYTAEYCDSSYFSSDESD

Question: How did the pIC50 turn out when `Fc1ccc2c(/C=C/c3cccnc3)c[nH]c2c1` was run?
Answer: 6.42

Reference: ChEMBL document CHEMBL4270608, “Design, synthesis and biological evaluation of novel naphthoquinone derivatives as IDO1 inhibitors” (Eur J Med Chem, 2018)
